# Measured values published in paper PMC4624220 (Journal of medicinal chemistry, 2015).
# Target: α-syn fibrils (Homo sapiens, UniProt P37840)
# Conditions: from Thio-T competition Ki values
compound,measurement,value
"CN(C)c1ccc(/C=C/C=C2C(=O)N(Cc3ccc([N+](=O)[O-])cc3)c3ccccc32)cc1 [Compound 28, 3-(3-(4-(Dimethylamino)phenyl)allylidene)-1-(4-nitrobenzyl)indolin-2-one]",selectivity for α-syn versus Aβ fibrils,20 fold
same,selectivity for α-syn versus tau fibrils,20 fold
